Experiment: in vivo
Conditions: rat
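Note: acute toxicity in rats expressed as LD50, determined for both prodrugs and their parent compounds.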

## C=CCOc1ccc(CC(=O)O)cc1Cl [Alclofenac, alclofenac, reference compound]
  LD50: 1050 mg/kg

From US20210353579A1, “HIGH PENETRATION COMPOSITIONS AND USES THEREOF” (Techfields Pharma Co., Ltd., priority 2006, published 2021)
